Assay results: ChEMBL document CHEMBL4616702, “Discovery of BMS-986251: A Clinically Viable, Potent, and Selective RORγt Inverse Agonist” (ACS Med Chem Lett, 2020)
Activity calls are given as the source filed them.

How the values were obtained:
Type in all cases: functional, organism-based
Mus musculus [1] = test: Suppression of ear thickness in C57BL/6 mouse model of IL-23 induced acanthosis model of psoriasis at 5 to 45 mg/kg, po BID for 10 days measured every other day
Mus musculus [2] = test: Reduction in IL-17 level in orally dosed IL-2/IL-23-stimulated C57BL/6 mouse whole blood measured after 30 mins by AlphaLISA method
Mus musculus [3] = test: Protection against imiquimod-induced C57BL/6 mouse model of psoriasis assessed as decrease in skin thickening at 2 to 20 mg/kg, po BID with daily dosing for 7 consecutive days and measured post-last dose

C[C@H]1C[C@H](C(=O)O)CC[C@H]1C(=O)N1CC[C@@]2(S(=O)(=O)c3ccc(F)cc3)c3ccc(C(F)(C(F)(F)F)C(F)(F)F)cc3CC[C@@H]12 [BMS-986251]
active: Activity (Mus musculus [1]) | inhibition (Mus musculus [2]) Dose-dependent effect | Activity (Mus musculus [3])
